From PubChem BioAssay (EPA / NIEHS)
Where “and” joins values, the source holds several entries; their conditions need not be identical. Equal entries are not always repeated. Only a part is listed here, and it is no random draw. Inconclusive results are not listed. Calls of active or inactive are those of the source. Rule for the calls, unless noted: active = hit-call score of the fitted dose curve at least 0.9, where 1 is the maximum; inconclusive = response in the unintended direction; inactive = score below 0.9.

Chains of the proteins cited; added tags and fusions are not shown. Lines headed by an entry give the natural chain unless they say otherwise; changes in a name come on top.
UniProt P05177, whole entry, looked up: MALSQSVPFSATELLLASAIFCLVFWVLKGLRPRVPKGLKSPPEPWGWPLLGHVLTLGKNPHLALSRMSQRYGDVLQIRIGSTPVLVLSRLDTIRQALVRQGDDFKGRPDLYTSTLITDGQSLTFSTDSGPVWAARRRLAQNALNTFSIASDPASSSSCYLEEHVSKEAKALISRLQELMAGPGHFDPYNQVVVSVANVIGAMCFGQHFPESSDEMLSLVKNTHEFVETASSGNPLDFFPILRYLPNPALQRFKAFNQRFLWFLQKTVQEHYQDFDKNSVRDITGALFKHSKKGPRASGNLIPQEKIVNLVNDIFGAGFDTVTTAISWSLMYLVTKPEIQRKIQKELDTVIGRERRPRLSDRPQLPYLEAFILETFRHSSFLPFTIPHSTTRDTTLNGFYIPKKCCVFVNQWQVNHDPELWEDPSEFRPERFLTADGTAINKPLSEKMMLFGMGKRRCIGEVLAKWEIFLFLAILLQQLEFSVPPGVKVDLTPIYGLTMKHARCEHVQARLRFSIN
UniProt P11712, whole entry, looked up: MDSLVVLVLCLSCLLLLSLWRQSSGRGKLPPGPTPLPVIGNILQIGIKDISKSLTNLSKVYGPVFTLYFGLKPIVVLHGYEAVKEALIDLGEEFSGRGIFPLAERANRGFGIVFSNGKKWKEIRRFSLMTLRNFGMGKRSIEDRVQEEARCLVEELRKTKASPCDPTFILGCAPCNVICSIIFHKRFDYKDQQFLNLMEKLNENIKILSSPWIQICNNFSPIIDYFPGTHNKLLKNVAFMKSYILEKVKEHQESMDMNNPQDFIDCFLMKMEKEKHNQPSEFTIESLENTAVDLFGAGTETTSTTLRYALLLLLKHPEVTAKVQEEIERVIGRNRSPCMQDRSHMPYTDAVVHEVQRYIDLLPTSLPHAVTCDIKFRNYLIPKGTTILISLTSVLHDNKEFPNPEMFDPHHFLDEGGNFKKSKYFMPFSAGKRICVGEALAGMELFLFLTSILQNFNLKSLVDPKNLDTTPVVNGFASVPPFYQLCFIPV
UniProt P33260, whole entry, looked up: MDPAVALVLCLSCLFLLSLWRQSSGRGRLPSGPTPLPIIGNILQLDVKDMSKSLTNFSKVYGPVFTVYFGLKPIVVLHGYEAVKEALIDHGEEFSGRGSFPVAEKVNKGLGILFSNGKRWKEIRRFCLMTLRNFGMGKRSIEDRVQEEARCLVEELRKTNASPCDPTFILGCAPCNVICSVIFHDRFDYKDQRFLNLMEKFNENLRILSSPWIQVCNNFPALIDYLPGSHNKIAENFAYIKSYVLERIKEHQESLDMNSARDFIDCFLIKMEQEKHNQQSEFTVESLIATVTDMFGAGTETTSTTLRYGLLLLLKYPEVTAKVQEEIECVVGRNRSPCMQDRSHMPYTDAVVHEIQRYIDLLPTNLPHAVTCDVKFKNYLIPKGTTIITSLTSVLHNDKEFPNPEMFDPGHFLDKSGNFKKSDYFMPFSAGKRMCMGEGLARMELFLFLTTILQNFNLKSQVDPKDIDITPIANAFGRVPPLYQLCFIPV
UniProt P10632, whole entry, looked up: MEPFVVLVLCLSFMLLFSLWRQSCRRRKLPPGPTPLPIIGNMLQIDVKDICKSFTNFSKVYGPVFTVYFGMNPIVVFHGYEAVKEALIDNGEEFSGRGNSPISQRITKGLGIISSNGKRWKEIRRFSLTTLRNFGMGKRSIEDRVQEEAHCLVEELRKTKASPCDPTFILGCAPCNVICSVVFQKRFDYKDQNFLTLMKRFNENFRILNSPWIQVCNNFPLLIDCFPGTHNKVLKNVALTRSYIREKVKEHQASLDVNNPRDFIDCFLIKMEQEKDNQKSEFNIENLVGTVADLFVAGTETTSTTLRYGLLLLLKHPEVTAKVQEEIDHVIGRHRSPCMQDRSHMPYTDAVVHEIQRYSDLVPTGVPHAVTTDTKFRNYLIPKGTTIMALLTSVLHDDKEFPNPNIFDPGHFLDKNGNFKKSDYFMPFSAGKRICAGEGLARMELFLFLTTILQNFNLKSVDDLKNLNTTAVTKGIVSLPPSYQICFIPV
UniProt Q9HCS2: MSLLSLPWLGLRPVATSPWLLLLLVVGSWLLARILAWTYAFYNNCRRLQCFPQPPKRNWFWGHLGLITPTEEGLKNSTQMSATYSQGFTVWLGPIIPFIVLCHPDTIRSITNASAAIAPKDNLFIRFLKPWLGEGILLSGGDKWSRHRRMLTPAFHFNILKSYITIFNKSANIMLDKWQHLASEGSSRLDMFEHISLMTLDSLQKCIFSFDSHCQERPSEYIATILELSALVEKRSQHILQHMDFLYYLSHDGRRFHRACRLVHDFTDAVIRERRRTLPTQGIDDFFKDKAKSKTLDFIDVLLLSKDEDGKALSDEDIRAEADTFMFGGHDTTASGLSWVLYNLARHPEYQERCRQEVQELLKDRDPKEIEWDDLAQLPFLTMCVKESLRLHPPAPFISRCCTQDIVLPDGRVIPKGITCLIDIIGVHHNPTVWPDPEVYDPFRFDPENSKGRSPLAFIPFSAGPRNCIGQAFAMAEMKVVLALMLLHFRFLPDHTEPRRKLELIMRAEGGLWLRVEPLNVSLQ
UniProt P04798: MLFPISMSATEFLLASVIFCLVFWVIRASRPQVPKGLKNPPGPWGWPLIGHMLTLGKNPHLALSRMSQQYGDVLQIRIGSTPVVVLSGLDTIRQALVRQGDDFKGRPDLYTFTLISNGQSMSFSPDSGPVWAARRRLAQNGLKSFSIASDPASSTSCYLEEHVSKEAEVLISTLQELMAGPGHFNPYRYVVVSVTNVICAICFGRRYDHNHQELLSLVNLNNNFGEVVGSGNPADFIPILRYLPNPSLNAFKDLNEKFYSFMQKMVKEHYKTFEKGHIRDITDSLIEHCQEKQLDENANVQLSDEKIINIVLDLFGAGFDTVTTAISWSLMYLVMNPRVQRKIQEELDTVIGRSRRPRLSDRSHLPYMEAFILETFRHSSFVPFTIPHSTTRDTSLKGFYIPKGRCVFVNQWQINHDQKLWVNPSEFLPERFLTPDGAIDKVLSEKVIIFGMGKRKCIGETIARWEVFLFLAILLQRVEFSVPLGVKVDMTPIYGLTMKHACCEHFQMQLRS
UniProt P20813: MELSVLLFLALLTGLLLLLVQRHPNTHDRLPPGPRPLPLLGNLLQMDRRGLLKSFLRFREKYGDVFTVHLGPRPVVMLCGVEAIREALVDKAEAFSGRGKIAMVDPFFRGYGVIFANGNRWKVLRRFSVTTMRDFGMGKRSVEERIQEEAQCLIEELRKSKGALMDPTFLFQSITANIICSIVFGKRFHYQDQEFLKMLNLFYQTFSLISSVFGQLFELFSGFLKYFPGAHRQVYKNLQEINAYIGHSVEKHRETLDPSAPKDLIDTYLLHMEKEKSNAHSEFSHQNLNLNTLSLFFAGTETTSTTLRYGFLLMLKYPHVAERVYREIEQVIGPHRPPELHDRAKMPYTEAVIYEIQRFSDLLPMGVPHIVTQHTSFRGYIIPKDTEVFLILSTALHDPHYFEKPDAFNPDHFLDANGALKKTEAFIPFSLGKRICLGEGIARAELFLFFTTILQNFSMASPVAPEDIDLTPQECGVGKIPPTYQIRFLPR
UniProt P51589: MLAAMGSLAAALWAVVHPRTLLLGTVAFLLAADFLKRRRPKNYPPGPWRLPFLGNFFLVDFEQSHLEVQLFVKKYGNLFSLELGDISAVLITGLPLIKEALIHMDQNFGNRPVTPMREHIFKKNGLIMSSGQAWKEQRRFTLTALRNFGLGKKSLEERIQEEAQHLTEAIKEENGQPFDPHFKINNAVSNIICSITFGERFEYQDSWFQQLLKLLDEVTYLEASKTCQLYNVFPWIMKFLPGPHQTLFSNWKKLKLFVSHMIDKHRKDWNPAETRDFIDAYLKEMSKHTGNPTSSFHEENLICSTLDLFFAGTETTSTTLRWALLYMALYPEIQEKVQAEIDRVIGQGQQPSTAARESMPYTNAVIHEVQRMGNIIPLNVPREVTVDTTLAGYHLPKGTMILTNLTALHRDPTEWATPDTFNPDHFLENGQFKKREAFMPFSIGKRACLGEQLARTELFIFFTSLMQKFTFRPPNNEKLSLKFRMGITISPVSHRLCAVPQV
UniProt P10635, whole entry, looked up: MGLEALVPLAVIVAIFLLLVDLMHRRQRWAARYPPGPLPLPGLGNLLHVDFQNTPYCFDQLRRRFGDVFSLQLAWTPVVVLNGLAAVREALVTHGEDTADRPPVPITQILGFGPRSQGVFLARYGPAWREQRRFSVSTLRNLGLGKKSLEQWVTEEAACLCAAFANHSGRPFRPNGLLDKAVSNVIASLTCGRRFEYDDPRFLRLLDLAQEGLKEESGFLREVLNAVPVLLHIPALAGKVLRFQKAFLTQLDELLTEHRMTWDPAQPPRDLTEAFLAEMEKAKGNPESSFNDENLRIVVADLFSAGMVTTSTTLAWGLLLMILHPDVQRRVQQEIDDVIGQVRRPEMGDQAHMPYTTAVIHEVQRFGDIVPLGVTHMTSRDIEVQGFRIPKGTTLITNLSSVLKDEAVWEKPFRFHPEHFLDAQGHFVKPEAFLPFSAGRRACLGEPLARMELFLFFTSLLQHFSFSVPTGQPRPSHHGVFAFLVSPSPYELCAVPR
UniProt P08684, whole entry, looked up: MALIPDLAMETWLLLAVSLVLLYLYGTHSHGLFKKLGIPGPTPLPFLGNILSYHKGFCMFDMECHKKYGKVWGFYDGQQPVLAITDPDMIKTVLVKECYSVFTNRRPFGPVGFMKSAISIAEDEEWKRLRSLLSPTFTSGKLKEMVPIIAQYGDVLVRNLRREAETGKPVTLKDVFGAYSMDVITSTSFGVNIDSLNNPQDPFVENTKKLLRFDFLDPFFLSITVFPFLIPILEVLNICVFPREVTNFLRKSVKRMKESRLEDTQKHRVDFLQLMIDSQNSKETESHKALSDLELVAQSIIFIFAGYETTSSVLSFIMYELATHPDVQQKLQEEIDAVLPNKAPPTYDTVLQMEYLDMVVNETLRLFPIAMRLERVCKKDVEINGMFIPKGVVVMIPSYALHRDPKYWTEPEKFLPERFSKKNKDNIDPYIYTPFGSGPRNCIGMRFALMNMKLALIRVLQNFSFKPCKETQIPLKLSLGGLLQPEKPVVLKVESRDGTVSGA

Tests used:
[1] = molecular target: human CYP1A2, CYP1A2 (gene 1544) (UniProt P05177); test: NVS_ADME_hCYP1A2: NovaScreen (NVS) CYP450-related Enzyme Activity (ADME) Assay for human CYP1A2 (AID 2283102);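 note: fluorescence from turnover of a fluorogenic substrate by recombinant insect-cell CYP1A2; potency for inhibition since loss of fluorescence marks reduced CYP1A2 activity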
Summary of the method: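 Inhibition scored as decrease in fluorescent product versus acetonitrile negative control. Enzyme: insect-cell recombinant human CYP1A2, substrate-specific, cell-free. Reading at 0.5 h; 10 uM duplicate initial screen with positive and negative controls on every plate.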

[2] = molecular target: human CYP2C9, CYP2C9 (gene 1559) (UniProt P11712); test: NVS_ADME_hCYP2C9: NovaScreen (NVS) CYP450-related Enzyme Activity (ADME) Assay for human CYP2C9 (AID 2283108)
Summary of the method: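 Fluorescence readout of CYP2C9 activity (SF9-expressed human enzyme) at 0.75 h. The primary screen used 10 uM in duplicate, with concentration-response follow-up for actives; acetonitrile was the negative control.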

[3] = molecular target: Cytochrome P450 2C18 (Homo sapiens) (UniProt P33260); test: NVS_ADME_hCYP2C18: NovaScreen (NVS) CYP450-related Enzyme Activity (ADME) Assay for human CYP2C18 (AID 2283103; active = hit-call score of the fitted dose curve at least 0.9, where 1 is the maximum; inactive = score below 0.9)
Method: (§1) NVS_ADME_hCYP2C18 is a biochemical, single-readout assay that uses extracted gene-proteins in a cell-free assay. Measurements were taken 0.5 hour after chemical dosing in a 96-well plate.NVS_ADME_hCYP2C18 is one of one assay component(s) measured or calculated from the NVS_ADME_hCYP2C18 assay. It is designed to make measurements of enzyme activity, a form of enzyme reporter, as detected with fluorescence intensity signals by Fluorescence technology.Data from the assay component NVS_ADME_hCYP2C18 was analyzed into 1 assay endpoint. This assay endpoint, NVS_ADME_hCYP2C18, was analyzed in the positive analysis fitting direction relative to Acetonitrile as the negative control and baseline of activity. Using a type of enzyme reporter, loss-of-signal activity can be used to understand changes in the enzymatic activity as they relate to the gene CYP2C18. Furthermore, this assay endpoint can be referred to as a primary readout, because this assay has produced multiple assay endpoints where this one serves a enzymatic activity function. To generalize the intended target to other relatable targets, this assay endpoint is annotated to the cyp intended target family, where the subfamily is xenobiotic metabolism. […]

[4] = molecular target: human CYP2C8, CYP2C8 (gene 1558) (UniProt P10632); test: NVS_ADME_hCYP2C8: NovaScreen (NVS) CYP450-related Enzyme Activity (ADME) Assay for human CYP2C8 (AID 2283104; active = hit-call score of the fitted dose curve at least 0.9, where 1 is the maximum; inactive = score below 0.9)
Method: as §1, with “NVS_ADME_hCYP2C8” for “NVS_ADME_hCYP2C18”, “plate.NVS_ADME_hCYP2C8” for “plate.NVS_ADME_hCYP2C18”, “NVS_ADME_hCYP2C8,” for “NVS_ADME_hCYP2C18,”, “CYP2C8.” for “CYP2C18.”

[5] = molecular target: human CYP4F12, CYP4F12 (gene 66002) (UniProt Q9HCS2); test: NVS_ADME_hCYP4F12: NovaScreen (NVS) CYP450-related Enzyme Activity (ADME) Assay for human CYP4F12 (AID 2283111)
Summary of the method: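 Cell-free fluorescence assay of recombinant human CYP4F12 activity on a specific substrate, read 0.5 h after dosing. Primary screen in duplicate at 10 uM, then concentration series for actives; loss of signal fitted against acetonitrile negative control.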

[6] = molecular target: human CYP1A1, CYP1A1 (gene 1543) (UniProt P04798); test: NVS_ADME_hCYP1A1: NovaScreen (NVS) CYP450-related Enzyme Activity (ADME) Assay for human CYP1A1 (AID 2283100)
Summary of the method: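 Inhibition of recombinant CYP1A1 turnover was assessed fluorometrically in a biochemical format 1 h after compound exposure. Testing began at 10 uM in duplicate and progressed to concentration series reaching 20 uM, with on-plate positive and negative controls.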

[7] = molecular target: human CYP2B6, CYP2B6 (gene 1555) (UniProt P20813); test: NVS_ADME_hCYP2B6: NovaScreen (NVS) CYP450-related Enzyme Activity (ADME) Assay for human CYP2B6 (AID 2283101)
Summary of the method: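 Compounds were first screened in duplicate at 10 uM against recombinant enzyme, with the fluorescent product measured after 1 hour. Active compounds were retested over a concentration series. Loss of fluorescence versus acetonitrile control was scored as reduced enzyme activity.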

[8] = molecular target: human CYP2J2, CYP2J2 (gene 1573) (UniProt P51589); test: NVS_ADME_hCYP2J2: NovaScreen (NVS) CYP450-related Enzyme Activity (ADME) Assay for human CYP2J2 (AID 2283106)
Summary of the method: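 Cell-free assay of recombinant CYP2J2 with a fluorogenic substrate, read 1 h after dosing; loss of signal versus acetonitrile. Primary screen at 10 uM in duplicate, then concentration-response up to 20 uM for chemicals passing threshold (e.g., 30% inhibition).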

[9] = molecular target: human CYP2D6, CYP2D6 (gene 1565) (UniProt P10635); test: NVS_ADME_hCYP2D6: NovaScreen (NVS) CYP450-related Enzyme Activity (ADME) Assay for human CYP2D6 (AID 2283107)
Summary of the method: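 Biochemical fluorescence assay, insect-cell-derived enzyme. Read at 1 h; inhibition taken from loss of signal against acetonitrile. Screened at 10 uM in duplicate, with concentration series for actives.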

[10] = molecular target: Cytochrome P450 3A4 (Homo sapiens) (UniProt P08684); test: NVS_ADME_hCYP3A4: NovaScreen (NVS) CYP450-related Enzyme Activity (ADME) Assay for human CYP3A4 (AID 2283110)
Summary of the method: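 Compounds were first screened in duplicate at 10 uM against recombinant CYP3A4 produced in insect cells, then actives were run in concentration series. Enzyme activity was measured by fluorescence after 0.33 hour, with acetonitrile as baseline.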

Measured: AC50

Cc1cc([N+](=O)[O-])cc([N+](=O)[O-])c1O
active: [1] 7.5 µM

CN(C(=O)Cc1cccc2occc12)[C@H]1CC[C@@]2(CCCO2)C[C@@H]1N1CCCC1
active: [2] 9 µM

O=C1C2CC=CCC2C(=O)N1SC(Cl)(Cl)C(Cl)Cl (centres undefined)
active: [3] 290 nM | [4] 122 nM | [5] 128 nM

CC(C)OP(=S)(OC(C)C)SCCNS(=O)(=O)c1ccccc1
active: [6] 1.02 µM and 688 nM and 659 nM | [7] 1.17 µM and 748 nM and 1.1 µM | [1] 2.77 µM and 3.64 µM and 1.98 µM | [3] 457 nM and 442 nM and 405 nM | [4] 736 nM and 1.04 µM and 861 nM | [8] 295 nM and 246 nM and 423 nM | [9] 3.68 µM and 3.64 µM and 2.79 µM | [2] 2.15 µM and 2.21 µM and 2.25 µM | [10] 668 nM and 438 nM and 450 nM
